Measured values published in patent US20140065611A1, “MODIFICATION OF NEURO[…] OF MERCURY BY A GENETIC PO[…] COPROPOR[…] IN CHILDREN” (University of Washington through its Center for …, priority 2012, published 2014).
Read-outs that look alike come from different tables or passages of the source. Marks after values point to notes of the source that are not given here.

Legend:
children [1] = details: for Beta (SE), Hg^0 dose-response, RAVALT TR 5 / rpart, Hg^0 dose-response, RAVALT TR 5: girls, acute Hg^0 (HgU Year 2)
children [2] = details: boys, Year 7, maximum Hg^0
children [3] = tested on: children
children [4] = details: for Beta (SE), Hg^0 dose-response, WRAVMA - Pegs Dominant / rpart, Hg^0 dose-response, WRAVMA - Pegs Dominant: Year 7, maximum Hg^0
children [5] = details: boys
children [6] = details: boys; remark: listed apart in the source
children [7] = details: boys; remark: listed apart in the source
children [8] = details: boys; remark: listed apart in the source
children [9] = details: boys; remark: listed apart in the source
children [10] = details: boys; remark: listed apart in the source
children [11] = details: girls, Year 2, p≦0.02
children [12] = tested on: children; remark: listed apart in the source
[13] = boys, CPOX4 Het or Mut, Year 7, maximum Hg^0
[14] = boys, CPOX WT, Year 7, maximum Hg^0
[15] = boys, CPOX4 Het or Mut, Year 7, cumulative Hg^0
[16] = boys, CPOX WT, Year 7, cumulative Hg^0
[17] = girls, CPOX4 Het or Mut, acute Hg^0 (HgU Year 2)
[18] = girls, CPOX WT, acute Hg^0 (HgU Year 2)
[19] = CPOX4 Het or Mut, Year 7, cumulative Hg^0
[20] = CPOX4 Het or Mut, Year 7, maximum Hg^0
[21] = CPOX WT, Year 7, cumulative Hg^0
[22] = CPOX4 Het or Mut, acute Hg^0 (HgU Year 2)
[23] = CPOX WT, acute Hg^0 (HgU Year 2)

elemental mercury [Hg^0]
rpart, Hg^0 dose-response, RAVALT TR5 - List A (children [1]; [13]): −.36 (.03)*
Beta (SE), Hg^0 dose-response, RAVALT TR5 - List A (children [1]; [14]): .51 (.43)
rpart, Hg^0 dose-response, RAVALT TR5 - List A (children [1]; [14]): .13 (.24)
Beta (SE), Hg^0 dose-response, RAVALT TR 5 (children [1]; CPOX4 Het or Mut): −1.34 (.47)*
rpart, Hg^0 dose-response, RAVALT TR 5 (children [1]; CPOX4 Het or Mut): −.38 (.006)*
Beta (SE), Hg^0 dose-response, RAVALT TR 5 (children [1]; CPOX WT): .28 (.43)
rpart, Hg^0 dose-response, RAVALT TR 5 (children [1]; CPOX WT): .07 (.51)
Beta (SE), Hg^0 dose-response, RAVALT TR7 - A/post B (children [2]; CPOX4 Het or Mut): −2.24 (.82)*
rpart, Hg^0 dose-response, RAVALT TR7 - A/post B (children [2]; CPOX4 Het or Mut): −.42 (.01)*
Beta (SE), Hg^0 dose-response, RAVALT TR7 - A/post B (children [2]; CPOX WT): .52 (.52)
rpart, Hg^0 dose-response, RAVALT TR7 - A/post B (children [2]; CPOX WT): .11 (.33)
Beta (SE), Hg^0 dose-response, RAVALT TR8 - List A 20′ (children [3]; [15]): −2.01 (.92)*
rpart, Hg^0 dose-response, RAVALT TR8 - List A 20′ (children [3]; [15]): −.35 (.04)*
Beta (SE), Hg^0 dose-response, RAVALT TR8 - List A 20′ (children [3]; [13]): −2.14 (.83)*
rpart, Hg^0 dose-response, RAVALT TR8 - List A 20′ (children [3]; [13]): −.40 (.01)*
Beta (SE), Hg^0 dose-response, RAVALT TR8 - List A 20′ (children [3]; [16]): .32 (.60)
rpart, Hg^0 dose-response, RAVALT TR8 - List A 20′ (children [3]; [16]): .06 (.60)
Beta (SE), Hg^0 dose-response, RAVALT TR8 - List A 20′ (children [3]; [14]): 84 (.58)
rpart, Hg^0 dose-response, RAVALT TR8 - List A 20′ (children [3]; [14]): .16 (.15)
Beta (SE), Hg^0 dose-response, RAVALT TR8 - List A 20′ (children [3]; [17]): −1.69 (.55)*
rpart, Hg^0 dose-response, RAVALT TR8 - List A 20′ (children [3]; [17]): −.40 (.003)*
Beta (SE), Hg^0 dose-response, RAVALT TR8 - List A 20′ (children [3]; [18]): .34 (.45)
rpart, Hg^0 dose-response, RAVALT TR8 - List A 20′ (children [3]; [18]): .08 (.46)
Beta (SE), Hg^0 dose-response, WRAVMA - Pegs Dominant (children [4]; boys, CPOX4 Het or Mut): −7.16 (2.90)*
rpart, Hg^0 dose-response, WRAVMA - Pegs Dominant (children [4]; boys, CPOX4 Het or Mut): −.39 (.02)*
Beta (SE), Hg^0 dose-response, WRAVMA - Pegs Dominant (children [4]; boys, CPOX WT): −.55 (1.58)
rpart, Hg^0 dose-response, WRAVMA - Pegs Dominant (children [4]; boys, CPOX WT): −.04 (.73)
Beta (SE), main effect Hg (ln), WRAVMA - Pegs Dominant (children [4]; boys, Year 7, cumulative Hg): .41 (1.49)
rpart, main effect Hg (ln), WRAVMA - Pegs Dominant (children [4]; boys, Year 7, cumulative Hg): .03 (.27)
direction of significant main effect of acute Hg^0 exposure, Peg test for the dominant hand (children [4]; girls, Year 2, p≦0.03): improved direction
Beta (SE), Hg^0 dose-response, WRAVMA - Pegs Non Dom (children [5]; [19]): −5.87 (2.92)*
rpart, Hg^0 dose-response, WRAVMA - Pegs Non Dom (children [5]; [19]): −.33 (.05)*
Beta (SE), Hg^0 dose-response, WRAVMA - Pegs Non Dom (children [5]; [20]): −5.34 (2.72)
rpart, Hg^0 dose-response, WRAVMA - Pegs Non Dom (children [5]; [20]): −.32 (.06)
Beta (SE), Hg^0 dose-response, WRAVMA - Pegs Non Dom (children [5]; [21]): .41 (1.49)
rpart, Hg^0 dose-response, WRAVMA - Pegs Non Dom (children [5]; [21]): .03 (.27)
Beta (SE), Hg^0 dose-response, WRAVMA - Pegs Non Dom (children [5]; CPOX WT, Year 7, maximum Hg^0): .79 (1.44)
rpart, Hg^0 dose-response, WRAVMA - Pegs Non Dom (children [5]; CPOX WT, Year 7, maximum Hg^0): .06 (.58)
Beta (SE), Hg^0 dose-response, Finger Tapping - Dominant (children [6]; [19]): −4.03 (1.76)*
rpart, Hg^0 dose-response, Finger Tapping - Dominant (children [6]; [19]): −.37 (.03)*
Beta (SE), Hg^0 dose-response, Finger Tapping - Dominant (children [6]; [20]): −3.46 (1.65)*
rpart, Hg^0 dose-response, Finger Tapping - Dominant (children [6]; [20]): −.34 (.04)*
Beta (SE), Hg^0 dose-response, Finger Tapping - Dominant (children [6]; [22]): −3.25 (1.53)*
rpart, Hg^0 dose-response, Finger Tapping - Dominant (children [6]; [22]): −.32 (.04)*
Beta (SE), Hg^0 dose-response, Finger Tapping - Dominant (children [6]; [21]): 1.59 (1.22)
rpart, Hg^0 dose-response, Finger Tapping - Dominant (children [6]; [21]): .15 (.20)
Beta (SE), Hg^0 dose-response, Finger Tapping - Dominant (children [6]; CPOX WT, Year 7, maximum Hg^0): 2.59
rpart, Hg^0 dose-response, Finger Tapping - Dominant (children [6]; CPOX WT, Year 7, maximum Hg^0): .25
Beta (SE), Hg^0 dose-response, Finger Tapping - Dominant (children [6]; [23]): 1.21 (.91)
rpart, Hg^0 dose-response, Finger Tapping - Dominant (children [6]; [23]): .13 (.19)
Beta (SE), Hg^0 dose-response, Finger Tapping - Non Dom (children [7]; [19]): −7.24 (1.67)*
rpart, Hg^0 dose-response, Finger Tapping - Non Dom (children [7]; [19]): −.60 (.0001)*
rpart, Hg^0 dose-response, Finger Tapping - Non Dom (children [7]; [20]): −.52 (.001*)
Beta (SE), Hg^0 dose-response, Finger Tapping - Non Dom (children [7]; [21]): 1.07 (1.27)
rpart, Hg^0 dose-response, Finger Tapping - Non Dom (children [7]; [21]): .10 (.40)
Beta (SE), Hg^0 dose-response, Finger Tapping - Non Dom (children [7]; CPOX WT, Year 7, maximum Hg^0): 2.14 (1.21)
rpart, Hg^0 dose-response, Finger Tapping - Non Dom (children [7]; CPOX WT, Year 7, maximum Hg^0): 20 (.08)
Beta (SE), main effect Hg (ln), WAIS-III - Symbol Search (children [8]; Year 7, cumulative Hg): −3.48 (1.54)*
rpart, main effect Hg (ln), WAIS-III - Symbol Search (children [8]; Year 7, cumulative Hg): −.20 (.03)*
Beta (SE), main effect Hg (ln), WAIS-III - Symbol Search (children [8]; Year 7, maximum Hg): −2.91 (1.49)*
rpart, main effect Hg (ln), WAIS-III - Symbol Search (children [8]; Year 7, maximum Hg): −.18 (.05)*
Beta (SE), main effect Hg (ln), WMS-III - Visual Reproduction - Immediate (children [9]; Year 7, cumulative Hg): −1.66 (.83)*
rpart, main effect Hg (ln), WMS-III - Visual Reproduction - Immediate (children [9]; Year 7, cumulative Hg): −.18 (.05)*
Beta (SE), main effect Hg (ln), WMS-III - Visual Reproduction - Immediate (children [9]; Year 7, maximum Hg): −1.63 (.80)*
rpart, main effect Hg (ln), WMS-III - Visual Reproduction - Immediate (children [9]; Year 7, maximum Hg): −.19 (.04)*
Beta (SE), main effect Hg (ln), WMS-III - Visual Reproduction - Delayed (children [10]; Year 7, cumulative Hg): −2.95 (1.24)*
rpart, main effect Hg (ln), WMS-III - Visual Reproduction - Delayed (children [10]; Year 7, cumulative Hg): −.22 (.02)*
Beta (SE), main effect Hg (ln), WMS-III - Visual Reproduction - Delayed (children [10]; Year 7, maximum Hg): −2.70 (1.19)*
rpart, main effect Hg (ln), WMS-III - Visual Reproduction - Delayed (children [10]; Year 7, maximum Hg): −.21 (.02)*
direction of significant main effect of acute Hg^0 exposure, RAVALT Trial 6 test (children [11]): improved direction
main effects of chronic Hg^0 exposure (children [12]; all girls, either measure of chronic exposure): no significant associations
cumulative Hg^0 dose-response effects on neurobehavioral test performance (children [12]; boys genotyped as CPOX wild type, Year 7): no significant cumulative Hg^0 dose-response effects
number of tests with significant dose-response relationships (impaired direction) (children [12]; boys with CPOX4 variant status, Year 7, maximum exposure): 14
number of the 23 neurobehavioral tests with significant Hg^0 dose-response effects (impaired direction) (children [12]; boys with at least one CPOX4 variant allele, Year 7, cumulative exposure): 11
dose-response relationships for chronic Hg^0 exposure (children [12]; girls, CPOX wild type or CPOX4 variant evaluated separately, maximum or cumulative measures): no significant dose-response relationships
